We go through 1 molecule from patent EP0147194B1 (Hosobuchi, Yoshio, priority 1983, dated 1989).

The assay concerns acute focal cerebral ischemia. Particulars: cats, MCA occlusion; intraperitoneal injection 6 hours after occlusion, then osmotic pump; observed up to 7 days; saline group all died in less than 24 hours.

For the molecule `CO[C@]12CC[C@@]3(C[C@@H]1C(C)(C)O)[C@H]1Cc4ccc(O)c5c4[C@@]3(CCN1CC1CC1)[C@H]2O5`, the “prolonging survival (mortality as a function of time following the cerebral artery occlusions)” value is “little effect in prolonging survival”.
